The chains behind the UniProt entries cited, without tags or fusion partners. Residues count along the entry.
UniProt P22629, 25-183: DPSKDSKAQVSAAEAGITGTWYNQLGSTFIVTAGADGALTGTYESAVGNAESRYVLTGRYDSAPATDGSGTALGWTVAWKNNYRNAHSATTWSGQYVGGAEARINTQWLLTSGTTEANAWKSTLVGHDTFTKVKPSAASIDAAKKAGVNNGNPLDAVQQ

In patent US6416738B1, “Pretargeting methods and compounds” (NeoRx Corporation, priority 1973, dated 2002):

Biological target: T1, circulating MAb-StrAv conjugate (Streptomyces avidinii, UniProt P22629)
T1 construct: NR-LU-10 whole antibody (murine IgG2b), chemically conjugated via SMCC to DTT-reduced antibody; made in house
Assay: G-HSA-B clearing agent evaluation and dose ranging
Assay type: in vivo, mice

In the case of “G-HSA-B: human serum albumin derivatized with 12-15 galactoses and 1 to 9 biotins”, the “clearance of MAb-StrAv from blood” value (9, 5 or 2 biotins/molecule, equal protein doses) is reported as “effective, rapid clearance of MAb-StrAv from blood”, the “dose giving optimal balance between blood clearance and tumor retention” value (9 biotins and 12-15 galactose residues per molecule) is reported as roughly 40 microgram and the “removal of StrAv-MAb from circulation” value (70 micrograms, 12-15 galactose residues and 9 biotins) is reported as “effective in removing StrAv-MAb from circulation”. For the same substance, the “dose range giving optimal tumor to background targeting” value (G-HSA-B with one biotin/molecule) was 90 to 180 micrograms.
